Binding of CDR-mutated scFvs to a peptide of the spike HR2 region

The target is the same throughout: PDVDLGDISGINAS, from the HR2 region of SARS-CoV-2 spike.

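The parent was found by panning a naive human phage display library on the peptide. AAYL51 was designed without a model: most single CDR substitutions and a random sample of double and triple ones. Affinity was read by AlphaSeq, a pooled yeast mating assay with surface-displayed partners. Mating (16 h, 30 °C) was followed by selection of diploids and sequencing of their barcodes. Scores were corrected for input abundance and mapped to Kd with protein pairs of known affinity run in the same pool. Mating was done three times.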

Each scFv is VL, the linker GGGGSGGGGSGGGGS, VH, as in the parent Ab-91, and differs from it in the CDRs of the heavy chain only.
VL: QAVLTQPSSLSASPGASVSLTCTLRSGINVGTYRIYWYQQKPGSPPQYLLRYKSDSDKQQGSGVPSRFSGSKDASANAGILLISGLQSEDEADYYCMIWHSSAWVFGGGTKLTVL
VH: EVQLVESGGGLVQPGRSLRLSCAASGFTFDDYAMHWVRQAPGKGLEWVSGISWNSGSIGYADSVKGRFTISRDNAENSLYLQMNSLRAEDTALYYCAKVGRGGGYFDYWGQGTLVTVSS

Changes read parent residue, position, new residue, counted from the first residue of the VH shown. Numbers give log10(Kd / nM), so 0 is 1 nM and 3 is 1 µM. Smaller is tighter. Replicates are averaged; those with no signal do not enter the mean. Where no diploid with the target was found in any replicate, the entry reads "nd": below detection, most likely a poor binder, though not proof of it.

changes | log10 Kd (nM), mean | replicates with signal
G26A+M34C+G102N | nd | 0/3
D30F+Y32N+V64W | 5.07 | 3/3
Y32D+I58N+R101K | 4.48 | 2/3
Y32I+D62K+G102L | 5.73 | 1/3
S63I+V64S+G102E | nd | 0/3
G59D+V64F+Y105P | nd | 0/3
G50I+I51Y+V99S | nd | 0/3
F29V+Y32A+S57I | 4.78 | 1/3
Y32V+D62Q+G100R | nd | 0/3
Y32H+S52Y+D62L | nd | 0/3
F27R+D62H+G102P | nd | 0/3
G26W+I58N+V99I | nd | 0/3
D31N+N54W | 3.15 | 3/3
F29Y+S55A+Y108G | 2.51 | 3/3
G103I+G104W+Y108T | 4.57 | 2/3
D30R+S63T | 1.79 | 3/3
W53N+V64G | 3.61 | 1/3
G26V+V64N+Y108Q | nd | 0/3
D30I+H35L | nd | 0/3
G50T+S57G+A61Y | nd | 0/3
H35F+G59L+Y60F | nd | 0/3
F27D+I58W+V99P | nd | 0/3
W53K+S63F+Y108S | nd | 0/3
M34V+V64L+G103R | 5.62 | 1/3
G50T+Y60E+Y108H | nd | 0/3

The remaining entries, values ahead:

log10 Kd (nM), mean | replicates with signal | changes
4.74 | 3/3 | D30R+S63H+Y105R
4.61 | 2/3 | M34Y+S57W+G104L
nd | 0/3 | I51R+S52G+V64G
5.49 | 2/3 | H35A+G56K+R101M
4.02 | 3/3 | S63K+F106Q
nd | 0/3 | F29S+G50H+K65P
5.38 | 2/3 | S52R+S55N+G103A
nd | 0/3 | T28N+V64R+R101I
nd | 0/3 | G26V+S52H+G56L
nd | 0/3 | K65W+R101P+Y105S
nd | 0/3 | T28A+A61D+V99Y
5.10 | 3/3 | D31C+S63Y+G104Y
4.44 | 1/3 | D30P+M34V
4.93 | 1/3 | D30F+S52W+Y105C
4.88 | 3/3 | G50A+Y60K+V99Y
nd | 0/3 | D30C+W53Y+F106S
2.62 | 1/3 | Y32D+M34Q+G100I
4.25 | 2/3 | F29P+D30Y+S57G
4.09 | 2/3 | N54Q+S63P+G100N
nd | 0/3 | S57T+D62W+F106M
nd | 0/3 | G26Y+W53M+G59H
5.13 | 1/3 | Y32C+V99K+Y108D
nd | 0/3 | T28L+F106T+D107Y
nd | 0/3 | M34I+G56N+F106A
4.39 | 1/3 | F29C+I51C+R101K
5.03 | 2/3 | G50C+S55P+I58W

Excerpt, the final 8 entries:

changes	log10 Kd (nM), mean	replicates with signal
N54Q+S63P+G100N	4.09	2/3
S57T+D62W+F106M	nd	0/3
G26Y+W53M+G59H	nd	0/3
Y32C+V99K+Y108D	5.13	1/3
T28L+F106T+D107Y	nd	0/3
M34I+G56N+F106A	nd	0/3
F29C+I51C+R101K	4.39	1/3
G50C+S55P+I58W	5.03	2/3

In this assay the parent's reference entry averaged 1.86; its copy inside this library read 0.88. Background: pairings of library AAYL51 with three empty control strains gave a value in 21% of cases (median 4.54, 5th percentile 3.26). Values in that range, when seen in few replicates, are hard to tell from nonspecific mating.

Values reported by Engelhart et al. 2022, doi:10.1038/s41597-022-01779-4 (FLAb copy).